Consider 1 substance from US5068358A, “Process for extracting N-methyl-2-pyrrolidone” (Hoechst Aktiengesellschaft, priority 1988, dated 1991).

This series can be described thus: solubility in water. To be noted: room temperature.

On to nonylphenol, for which the water solubility result is listed as “less than 1 ppm” and the “water solubility (in words)” value is reported as “virtually water-insoluble”.
